# Source: PubChem BioAssay
# Only some compounds are listed: those with a hit (about 3.7% of all), similar ones and a draw of the others.
# Nrf2 activator: Nrf2 pathway activation; AREc32 ARE-luciferase reporter (MCF7-derived line), luminescence, 24 h; Potency, µM (top dose mostly 46.1 µM), for the others: top-dose activation, actives largely listed as activators; 410,000 compounds, 0.31% hits; AID 624171; also: potency is read from the fitted curve at half-maximal effect; % of control where 0% means no effect; nearly all actives have a fitted effect of over 65% in size
#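 Cells of the AREc32 ARE-luciferase line are plated in OPTI-MEM containing 5% FBS and left overnight at 37 deg C. Compounds are pinned in, incubation continues 24 hr, and firefly luciferase signal is then measured.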
# miR-21 FLuc: miR-21 reporter, rising signal; Potency, µM (titrated, usually from 38.3 µM), without a hit: at the highest dose reporter change, positive = more light; AID 2288; 340,000 tested, under 10 active; HeLa miR-21 FLuc reporter, luciferase, 48 h; active = well fitted rising curve with a large enough effect; inconclusive = small, poorly fitted or top-dose-only effect; inactive = no such curve, though single readings can be large or run the other way;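 note: % of control where 0% means no effect; miR-21 action dims this reporter so a rising signal means less miR-21 action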
#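 Compounds were titrated across several concentrations (up to approximately 40 uM) and incubated 48 hours with HeLa miR-21-FLuc reporter cells (miR-21 target sequence downstream of FLuc, endogenous miR-21). Readout was firefly luciferase luminescence after lytic detection reagent.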
# A549 tox: counter-screen for Nrf2 inhibitors: cytotoxicity in A549 cells. Potency, µM (series often up to 46 µM), for the others: at the top dose activity change, negative = cytotoxicity, usual class: inhibitors. 390,000 compounds, 0.16% hits. AID 504648. A549 ARE-Fluc cells, CellTiter-Fluor viability, 18-24 h; also: potency is read from the fitted curve at half-maximal effect; % is scaled to controls: 0 for no effect and ±100 for the full control effect
#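 Cytotoxicity counterscreen: CellTiter-Fluor fluorescence was measured in A549 ARE_Fluc cells after 18-24 h of compound exposure in a concentration series. The subsequent BugLite luminescent read reports ARE-luciferase activity.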
# p53 reactivator: restores transcriptional activity of mutant p53; Potency, µM (top dose mostly 92.2 µM), without a hit: at the highest dose activity change, positive = activation, hits mostly activators; H1299 p53-A138V BP100-luciferase reporter, luminescence, 24 h; 320,000 compounds, 0.063% hits; also: potency is read from the fitted curve at half-maximal effect; % of control where 0% means no effect; nearly all actives have a fitted effect of over 45% in size
#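 p53-null H1299 cells stably carrying temperature-sensitive p53-A138V and a BP100-luciferase reporter were pinned with compounds (4-point, 1:5 series) and held 24 hrs at 37 deg C. Luminescence was read 10 min after detection reagent.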
# ClpP mod: qHTS Assay for Activators of ClpP; ATP-dependent Clp protease proteolytic subunit (Bacillus subtilis (strain 168)), P80244; purified B. subtilis ClpP, FRET peptide cleavage, 20 min; Potency, µM (top dose mostly 57.5 µM), for inactives: at the highest dose activity change, negative = active; 340,000 compounds, 1.9% hits; active = well fitted falling curve with a large enough effect; inconclusive = small, poorly fitted or top-dose-only effect; inactive = no such curve, though single readings can be large or run the other way; also: potency is read from the fitted curve at half-maximal effect; the source files actives as falling curves though it sought activators and does not explain the sign; nearly all actives have a fitted effect of over 65% in size
#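 Purified B. subtilis ClpP, 10 microg/mL final in Tris/HCl pH8 with KCl, BSA, glycerol and Tween-20, cleaved an Abz/nitrotyrosine-quenched decapeptide. Fluorescence (ex 320, em 430) was read at 0 and 20 min at room temperature. Delta was normalized to 5.8 microM ADEP and DMSO/no-enzyme controls.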
# Nrf2 inh: blocks Nrf2 signaling; A549 ARE-Fluc reporter, luciferase luminescence, 18-24 h; Potency, µM (series often up to 46 µM), inactives show at the highest dose activity change, negative = inhibition, most hits filed as inhibitors; 360,000 compounds, 2.1% hits; AID 504444; also: potency is read from the fitted curve at half-maximal effect; % is scaled to controls: 0 for no effect and ±100 for the full control effect; nearly all actives have a fitted effect of over 60% in size
#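 Cells were seeded and rested 2 h, then exposed to compounds for 18-24 h. CellTiter-Fluor was read first as a viability measure. BugLite was added 15 min before the final luminescent read of ARE-luciferase activity in A549 cells.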
# * hit, by the source's call; u = inconclusive; x = no result given. Unless noted, calls follow the shape of the dose curve; as a rule, active = well fitted curve in the direction sought with a large enough effect; inconclusive = small, poorly fitted or top-dose-only effect, or another doubt; inactive = no such curve, though single readings can be large; an effect the other way counts as inactive or inconclusive.
entry	molecule	Nrf2 activator	miR-21 FLuc	A549 tox
1	NC(=O)c1sc2nc3c(c(-c4ccco4)c2c1N)CCC3	-1%	15%	5%
2	O=C1c2ccccc2C(=O)N1CSc1nnc(Nc2ccccc2)s1	1%	-4%	-4%
3	O=C1c2ccccc2C(=O)N1CSc1nnc(Nc2ccccc2F)s1	5%	-40%	6%
4	COc1cc2nc(N3CCCN(C)CC3)nc(NC3CCNCC3)c2cc1OC	x	x	x
5	Cc1cc2occ(CC(=O)N(C)CC(=O)Nc3c(C)cccc3C)c2cc1C	-1%	x	0%
6	Cc1cc2occ(CC(=O)N(C)CC(=O)Nc3cccc(F)c3)c2cc1C	3%	-2%	u
7	O=C(CSc1ncnc2c1oc1ccccc12)c1cccs1	3.5µM*	-51%	-3%
8	COc1cccc(C(=O)NCc2cn3ccsc3n2)c1	4%	-15%	-2%
9	COc1cccc(C(=O)NCc2cn3ccccc3n2)c1	9%	18%	-1%
10	CCNc1nc(N2CCCN(C)CC2)nc2cc(OC)c(OC)cc12	x	x	x

entry	p53 reactivator	ClpP mod	Nrf2 inh
1	-12%	4%	5.8µM*
2	12%	x	1%
3	20%	28µM*	-1%
4	x	4%	x
5	-4%	-3%	-3%
6	x	-3%	26µM*
7	20%	-4%	u
8	18%	0%	11%
9	x	u	23µM*
10	x	4%	x

# 4 compounds already listed, arranged by the number in miR-21 FLuc, falling:
cpd	SMILES	Nrf2 activator	miR-21 FLuc	p53 reactivator
9	COc1cccc(C(=O)NCc2cn3ccccc3n2)c1	9%	18%	x
1	NC(=O)c1sc2nc3c(c(-c4ccco4)c2c1N)CCC3	-1%	15%	-12%
2	O=C1c2ccccc2C(=O)N1CSc1nnc(Nc2ccccc2)s1	1%	-4%	12%
7	O=C(CSc1ncnc2c1oc1ccccc12)c1cccs1	3.5µM*	-51%	20%

# New compounds follow.
entry	molecule	Nrf2 activator	miR-21 FLuc	A549 tox
11	Cc1cc2n(n1)C(c1cccs1)Nc1ccccc1-2 (stereo not given)	0%	-9%	5%
12	COc1cc(C2Nc3ccccc3-c3cc(C)nn32)ccc1O (stereo not given)	5%	-17%	8%
13	Cc1cc2n(n1)C(c1ccc(O)cc1)Nc1ccccc1-2 (stereo not given)	1%	-1%	x
14	CCOc1cccc(C2Nc3ccccc3-c3cc(C)nn32)c1O (stereo not given)	5%	-15%	-2%
15	COc1ccc(C2Nc3ccccc3-c3cc(C)nn32)cc1OC (stereo not given)	4%	-5%	-4%
16	CCCc1ccc(OCc2ccc(C(=O)Nc3ccccc3C(=O)OC)o2)cc1	4%	-52%	-16%
17	CC(C)c1ccc(NC(=O)C2Cc3c(-c4ccco4)ccnc3O2)cc1 (stereo not given)	14%	x	x
18	COc1ccc(CCn2c(=S)[nH]c(=O)c3cccnc32)cc1OC	x	x	x
19	Cc1ccc(S(=O)(=O)N2CCCC(C)C2)cc1 (stereo not given)	0%	13%	-1%
20	CC1CCCN(S(=O)(=O)c2ccc(S(=O)(=O)NC(C)c3cccs3)cc2)C1 (stereo not given)	2%	9%	u

entry	p53 reactivator	ClpP mod	Nrf2 inh
11	-3%	20µM*	11%
12	x	32µM*	28%
13	1%	28µM*	18µM*
14	x	3%	u
15	x	14µM*	x
16	x	4%	u
17	x	0%	x
18	x	-2%	x
19	x	1%	-11%
20	3%	-2%	23µM*

# More results
entry	molecule	Nrf2 activator	miR-21 FLuc	A549 tox
21	O=C1NC(=O)c2c(NC(=O)C3CCCO3)cccc21 (stereo not given)	-1%	-6%	-5%
22	O=C1CCCC2=C1C(c1cccs1)Nc1ccccc1N2 (stereo not given)	-1%	-2%	10%
23	Cc1ccc(C)c(N2CCN(C(=O)CCCOc3cc(=O)n(C)c4ccccc34)CC2)c1	0%	29%	u
24	Clc1cccc(-c2ccc3ncnc(NCc4cccs4)c3c2)c1	4%	x	-2%
25	FC1(F)Oc2ccc(-c3ccc4ncnc(NCc5cccs5)c4c3)cc2O1	x	x	-13%
26	Cc1cccc(-c2ccc3ncnc(NCc4cccs4)c3c2)c1	-1%	x	-3%
27	COC(=O)c1cc2oc3ccccc3c2n1CC(=O)Nc1ccc(Cl)cc1F	26%	-7%	4%

entry	p53 reactivator	ClpP mod	Nrf2 inh
21	x	16µM*	1%
22	-7%	20µM*	-17%
23	-12%	-1%	23µM*
24	1%	x	u
25	x	x	13µM*
26	9%	x	21µM*
27	x	u	u
